The text below walks through data of PubChem BioAssay AID652126 (The Scripps Research Institute Molecular Screening Center, 2013).

Only a part is listed here, and it is no random draw. Some structures show a salt or complex split into parts, the way the source records it. Activity calls are given as the source filed them.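 Rule for the calls: active = activation above the mean over all tested compounds plus 3 SD (cut at about 0.9% in these data); inactive = the rest.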

This assay concerns Nuclear hormone receptor DAF-12 (Strongyloides stercoralis). Put plainly: S. stercoralis DAF-12 nuclear receptor activators, primary screen, cell-based, luminescence, HEK293, GRIP1 co-expression, lit1-tk-luc (AID 652126).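 Note: 0% = DMSO-only wells and 100% = 3 µM delta7-dafachronic acid wells.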 The settings on record: HEK293 ssDAF-12/GRIP1 lit1-tk-luc reporter, at 6.8 µM, stronger effect = higher value, % of 3 µM dafachronic acid response.
Consider `CP(=O)(OC12CC3CC(CC(C3)C1)C2)OC12CC3CC(CC(C3)C1)C2`, for which the activation is inactive: -1.43%.

Consider `CCOC(=O)c1ccc(NP(C)(=O)Oc2ccc(Cl)cc2)cc1` (configuration not stated), for which the activation is inactive: -1.36%.

Regarding `Nc1ccc2c(ccc3cccnc32)n1.O=[N+]([O-])c1cc([N+](=O)[O-])c(O)c([N+](=O)[O-])c1`, the activation is inactive: -1.65%.

With `CP(=O)(Oc1ccccc1)N1CCOC1=O` (configuration not stated), the activation was inactive: -1.31%.

Regarding `CCc1ccc(OP(C)(=O)Nc2cccnc2)cc1` (configuration not stated), the activation is inactive: -1.39%.

Regarding `COc1ccccc1OP(C)(=O)Nc1c(C)n(C)n(-c2ccccc2)c1=O` (configuration not stated), the activation is inactive: -0.8%.

Turning to `O=C(OCCCN1CCCC1)C(O)(c1ccccc1)C1CCCCC1` (configuration not stated), the activation is inactive: -1.07%.

As for `CCN(CC)CC(O)COC(=O)C(O)(c1ccccc1)C1CCCCC1` (configuration not stated), the activation was inactive: -0.29%.

Consider `COc1ccc(OP(C)(=O)Nc2ccc(Br)cc2)cc1` (configuration not stated), for which the activation is inactive: -0.9%.

`CN(C)C(=O)c1c([N+](=O)[O-])cc([N+](=O)[O-])cc1[N+](=O)[O-]`: the activation was inactive: -1.81%.

On to `CP(=O)(Nc1ccc(Cl)cc1)Oc1ccc(F)cc1` (configuration not stated), for which the activation was inactive: -1.39%.

In the case of `COc1ccccc1OP(C)(=O)Nc1ccccc1Br` (configuration not stated), the activation is inactive: -2.21%.

Take `CC(C)(C)c1ccc(OP(C)(=O)O)cc1`: the activation was inactive: -1.08%.

Regarding `CN(C)CCOC(=O)C(O)(c1ccccc1)C1CCCC1` (configuration not stated), the activation was inactive: -1.71%.

Regarding `COc1ccc(OP(C)(=O)Nc2ccccn2)cc1` (configuration not stated), the activation is inactive: -1.01%.

As for `COc1ccccc1OP(C)(=O)Nc1ccc(Br)cc1` (configuration not stated), the activation was inactive: -1.24%.

Take `CCc1ccc(OP(C)(=O)O)cc1`: the activation is inactive: -1.36%.

With `CP(=O)(Nc1ccccn1)Oc1ccccc1` (configuration not stated), the activation is inactive: -1.11%.

In the case of `COc1ccccc1OP(C)(=O)Nc1ccc(C)cc1C` (configuration not stated), the activation is inactive: -1.19%.

As to `Cc1c(NP(C)(=O)Oc2ccc(C(C)C)cc2)c(=O)n(-c2ccccc2)n1C` (configuration not stated), the activation is inactive: -1.42%.

As for `O=[N+]([O-])c1cc([N+](=O)[O-])c(Nc2ccccn2)c([N+](=O)[O-])c1`, the activation was inactive: -1.72%.

As to `COc1ccc(OP(C)(=O)Nc2ccccc2Br)cc1` (configuration not stated), the activation is inactive: -1.27%.

On to `COc1ccccc1OP(C)(=O)Nc1ccc(C)c(C)c1` (configuration not stated), for which the activation is inactive: -1.12%.

`O=C1C(O)=C([N+](=O)[O-])C(=O)C(O)=C1[N+](=O)[O-]`: the activation is inactive: -0.84%.

With `Cc1cc(C)cc(OP(C)(=O)Nc2cccc(C(F)(F)F)c2)c1` (configuration not stated), the activation is inactive: -1.38%.

As for `CCCCCCCCCCCCCCCC1C[N+](C)(C)CCOP(C)(=O)O1` (configuration not stated), the activation was inactive: -1.05%.

`CP(=O)(Nc1ccc(Cl)cc1Cl)Oc1ccccc1` (configuration not stated): the activation is inactive: -1.31%.

`CP(=O)(OCCOc1ccccc1)OCCOc1ccccc1`: the activation is inactive: -1.06%.

With `COc1ccc(OP(C)(=O)Nc2ccc(SC(F)(F)F)cc2)cc1` (configuration not stated), the activation is inactive: -1.86%.

`CCOC(=O)c1ccc(NP(C)(=O)Oc2ccc(F)cc2)cc1` (configuration not stated): the activation is inactive: -1.38%.

As for `CCN(CC)CCCNc1ccccc1[N+](=O)[O-].O=[N+]([O-])c1cc([N+](=O)[O-])c(O)c([N+](=O)[O-])c1`, the activation is inactive: -0.24%.

Take `CCCCCOc1ccc(NP(C)(=O)Oc2ccc(Cl)cc2Cl)cc1` (configuration not stated): the activation was inactive: -0.7%.

`O=[N+]([O-])c1cc([N+](=O)[O-])c(OC2CCCCC2O)c([N+](=O)[O-])c1` (configuration not stated): the activation is inactive: -1.22%.

As to `CP(=O)(Nc1ccccc1)Oc1ccc(F)cc1` (configuration not stated), the activation is inactive: -1.8%.

`CCN(CC)CCCOC(=O)C(O)(c1ccccc1)C1CCCCC1` (configuration not stated): the activation was inactive: -1.31%.

For the compound `Cc1c([N+](=O)[O-])cc([N+](=O)[O-])c(Br)c1[N+](=O)[O-]`, the activation is inactive: -0.21%.

For `CC(C)c1ccc(OP(C)(=O)Nc2ccc(SC(F)(F)F)cc2)cc1` (configuration not stated), the activation is inactive: -1.46%.

`CP(=O)(Nc1ccccc1F)Oc1ccccc1` (configuration not stated): the activation was inactive: -1.56%.

As for `O=[N+]([O-])c1cc([N+](=O)[O-])c(Nc2ccc(Cl)cc2)c([N+](=O)[O-])c1`, the activation is inactive: -1.47%.

For `COc1ccc2c(c1O)-c1c(O)c(OC)cc3c1[C@H](C2)[N+](C)(C)CC3.O=[N+]([O-])c1cc([N+](=O)[O-])c([O-])c([N+](=O)[O-])c1[O-]`, the activation is inactive: -1.22%.

`O=C(OCCN1CCN(CCOCc2ccccc2)CC1)C(O)(c1ccccc1)c1ccccc1`: the activation was inactive: -1.88%.

Turning to `O=C(OC1CN2CCC1CC2)c1ccc([N+](=O)[O-])cc1` (configuration not stated), the activation is inactive: -0.8%.

For the compound `CCOP(=O)(CC)OCC`, the activation is inactive: -1.15%.

On to `CCOP(C)(=S)SCC(=O)NC(C)(CC)C(=O)O` (configuration not stated), for which the activation is inactive: -1.1%.

Consider `CP(=O)(Nc1ccc(SC(F)(F)F)cc1)Oc1ccc(F)cc1` (configuration not stated), for which the activation was inactive: -1.6%.

`O=[N+]([O-])c1cc([N+](=O)[O-])c(C(F)(F)F)c([N+](=O)[O-])c1O`: the activation is inactive: -0.82%.

As to `Cc1ccccc1NP(C)(=O)Nc1ccccc1C`, the activation is inactive: -0.9%.

Regarding `CP(=O)(Nc1ccc2c(c1)OCCO2)Oc1ccccc1` (configuration not stated), the activation is inactive: -1.73%.

For `COc1ccc(NP(C)(=O)Oc2ccccc2OC)cc1` (configuration not stated), the activation is inactive: -1.16%.

In the case of `CN(C)CCOC(=O)C(O)(c1ccccc1)C1CCCCC1` (configuration not stated), the activation was inactive: -0.91%.

For `COc1ccc(OP(C)(=O)Nc2cccc(Br)c2)cc1` (configuration not stated), the activation is inactive: -0.86%.

Regarding `Cc1c(C(c2ccc3c(c2)OCO3)c2c(C)n(C)n(-c3ccccc3)c2=O)c(=O)n(-c2ccccc2)n1C.O=[N+]([O-])c1cc([N+](=O)[O-])c(O)c([N+](=O)[O-])c1`, the activation was inactive: -1.86%.

`Cc1cc(-c2cccc3ccccc23)c(C)cn1.O=[N+]([O-])c1cc([N+](=O)[O-])c(O)c([N+](=O)[O-])c1`: the activation is inactive: -1.19%.

For `O=[N+]([O-])c1cc([N+](=O)[O-])c(NCC2CCS(=O)(=O)C2)c([N+](=O)[O-])c1` (configuration not stated), the activation is inactive: -1.13%.

Regarding `O=[N+]([O-])c1ccc(OP2(=O)COCCO2)cc1` (configuration not stated), the activation is inactive: -1.37%.

Regarding `O=[N+]([O-])c1cc([N+](=O)[O-])c(Nc2nnnn2CCO)c([N+](=O)[O-])c1`, the activation was inactive: -1.05%.

In the case of `CCOC(=O)C(CC)C1=NC(C)(C)Cc2ccccc21.O=[N+]([O-])c1cc([N+](=O)[O-])c(O)c([N+](=O)[O-])c1` (configuration not stated), the activation was inactive: -1.08%.
